# Values quoted from earlier work, collected in patent US5888536A, “Liposome composition containing selegilin” (Chinoin Ltd., priority 1994, dated 1999).
# Test system: MAO-B
# Settings: known effect
smiles,measurement,value
"C#CCN(C)[C@H](C)Cc1ccccc1 [selegilin, (-)-[N-α-dimethyl-N-(2-propynylphenylethylamine)]]",MAO-B selectivity of inhibition,selective MAO-B inhibiting effect
